In the assay the test system is Methicillin Resistant S. aureus (MRSA, ATCC#43300). The assay can be described thus: plug-based microfluidic antibiotic susceptibility screen with alamarBlue viability indicator. The note with it: breakpoint concentration; 4x10^5 CFU/mL; 7 h at 37° C. Background: The colour change of resazurin is a common sign of viable cells or microbes.

Data on one molecule can be found in US20100227767A1, “STOCHASTIC CONFINEMENT TO DETECT, MANIPULATE, AND UTILIZE MOLECULES AND ORGANISMS” (priority 2007, published 2010).

The structures appear in SMILES notation.

Regarding `CN[C@H](CC(C)C)C(=O)N[C@H]1C(=O)N[C@@H](CC(N)=O)C(=O)N[C@H]2C(=O)N[C@H]3C(=O)N[C@H](C(=O)N[C@H](C(=O)O)c4cc(O)cc(O)c4-c4cc3ccc4O)[C@H](O)c3ccc(c(Cl)c3)Oc3cc2cc(c3O[C@@H]2O[C@H](CO)[C@@H](O)[C@H](O)[C@H]2O[C@H]2C[C@](C)(N)[C@H](O)[C@H](C)O2)Oc2ccc(cc2Cl)[C@H]1O` [VCM, vancomycin], the “susceptibility of MRSA to the antibiotic (sensitive: no plug with fluorescence increase greater than 3 times the VCM baseline; resistant: at least one)” value was “sensitive”.
